Consider one compound from the NIST ThermoML archive (doi:10.1016/j.jct.2015.05.026).

Data set [1] in a line: Molar enthalpy of transition or fusion. The conditions noted are these: Crystal; DSC.
The conditions of data set [2]: Crystal; DTA.

Numbers after ± are expanded uncertainties.

As for `O=C(O)CCCCCCCCCCCC(=O)O` [tridecanedioic acid], the “Molar enthalpy of transition or fusion” value in data set [1] was 12.3 ± 0.311 kcal/mol. For the same compound, the Normal melting temperature in data set [2] is 113.06 ± 0.45 °C.
